From article PMC4528135, “Kinetic Investigations of the Role of Factor Inhibiting Hypoxia-inducible Factor (FIH) as an Oxygen Sensor” (The Journal of Biological Chemistry, 2015)
Values joined by “and” are separate entries in the source; they are usually repeats but may differ in a detail not shown here. Equal entries are not always repeated. Where two headings read alike, the source gives them in different places.

Protein sequences, listed by entry. Tags and fused reporters are not part of them. Residues count along the entry.
UniProt Q9GZT9, 181-426: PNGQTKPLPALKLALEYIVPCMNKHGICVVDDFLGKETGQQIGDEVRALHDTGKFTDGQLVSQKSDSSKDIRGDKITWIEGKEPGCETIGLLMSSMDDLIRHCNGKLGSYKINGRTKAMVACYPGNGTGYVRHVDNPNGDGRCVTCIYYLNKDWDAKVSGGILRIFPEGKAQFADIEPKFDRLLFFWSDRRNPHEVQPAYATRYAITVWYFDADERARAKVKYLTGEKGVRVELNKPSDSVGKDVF

Tests used:
Type in all cases: biochemical
PHD2 [1] = molecular target: T1, PHD2 (Homo sapiens, UniProt Q9GZT9); assay: Time course of PHD2-catalyzed peptide hydroxylation; details: 4 μM PHD2, 100 μM peptide, 50 μM Fe(II), 300 μM 2OG, 1 mM L-ascorbate, 50 mM HEPES pH 7.5, 37 °C, atmospheric O2; MALDI-TOF-MS; triplicate assays
T1 construct: The catalytic domain of PHD2 (residues 181–426) was purified as described; made in house
Experimental: (§1) Enzymatic assays were conducted as described ([46], [47]). Unless otherwise stated, the assay mixture typically contained 5 μM FIH, 500 μM substrate, 500 μM 2OG, 1 mM L-ascorbate, and 50 μM Fe(NH4)2(SO4)2 or 4 μM PHD2, 100 μM substrate, 300 μM 2OG, 4 mM L-ascorbate, and 50 μM Fe(NH4)2(SO4)2. For HIF-1α CODD19-mer, the background levels of methionine oxidation resulting from assay conditions were subtracted based on non-enzymatic controls ([48]).
FIGURE 3. PHD2- and FIH-catalyzed hydroxylation of HIF-1/2α peptide substrates. A, time course of HIF-1/2α CODD19-mer peptide hydroxylation; B, time course of HIF-1/2α NODD19-mer peptide hydroxylation. Conditions were as follows: 4 μM PHD2, 100 μM peptide, 50 μM Fe(II), 300 μM 2OG, 1 mM L-ascorbate in HEPES 50 mM (pH 7.5) were incubated at 37 °C at atmospheric O2. C, time course of HIF-1α CAD 19- and 35-mer peptide hydroxylation. D, time course of HIF-2α CAD 19- and 35-mer peptide hydroxylation. Conditions were as follows: 5 μM FIH, 500 μM peptide, 50 μM Fe(II), 500 μM 2OG, 1 mM L-ascorbate in HEPES 50 mM (pH 7.5) were incubated at 37 °C at atmospheric O2. The different hydroxylation levels were analyzed by MALDI-TOF-MS. Error bars, S.D. of triplicate assays.

PHD2 [2] = molecular target: T1, PHD2; assay: Rapid quench-flow, PHD2 pre-steady-state product and succinate formation; details: same mixture as stopped-flow, O2-saturated buffer 1:1, 5 °C, quenched with 1% CF3CO2H
Experimental: Rapid quench-flow experiments were performed using the same conditions and preparation of the assay mixture as used in stopped-flow experiments. Rapid quench-flow equipment (TgK Scientific Ltd.) in an anaerobic glove box was used for the experiments. Samples were quenched with 1% CF3CO2H and analyzed using MALDI-TOF-MS (peptide hydroxylation) as described above or liquid chromatography-mass spectrometry (LC-MS, for succinate production). For LC-MS, chromatographic separation was performed at 50 °C using a Waters ACQUITY BEH Amide 1.7-μm, 2.1 × 100-mm column on a Waters ACQUITY^TM ultraperformance liquid chromatography system (Waters Corp., Milford, MA). The following eluents were used: mobile phase A: 10% H2O, 90% acetonitrile (v/v), 10 mM ammonium formate; mobile phase B: 50% H2O, 50% acetonitrile (v/v), 10 mM ammonium formate. […] Analytes were detected in negative ionization mode using single reaction monitoring on a Quattro triple quadrupole mass spectrometer (Waters) with a cone voltage of 15 V and a capillary voltage of 3.0 kV. […]
To investigate correlation of the spectroscopic observations with rates of product accumulation, equivalent reactions were analyzed by rapid quench-flow methodology. […] The level of peptide hydroxylation was assessed by MALDI-TOF-MS ([42]), and succinate accumulation was analyzed by LC-MS. […]

[3] = molecular target: T2, PHD2 (catalytic domain, residues 181–426) (Homo sapiens, UniProt Q9GZT9); assay: Steady-state kinetics of PHD2-catalyzed HIF-α CODD/NODD hydroxylation (MALDI-TOF-MS); details: 4 mM L-ascorbate, 50 mM HEPES pH 7.5, 37 °C; for Km: 50 μM Fe(II), triplicate assays
T2 construct: The catalytic domain of PHD2 (residues 181–426) was purified as described; made in house
Experimental: as §1
(§2) The O2 dependence of FIH-catalyzed reactions was determined by conducting enzymatic assays in an “In vivo 500 Hypoxia Workstation” (Ruskinn) using buffers pre-equilibrated under different pO2 values for 24 h. The O2 dependence of PHD2-catalyzed reactions was determined by conducting enzymatic assays in sealed glass vials with variable N2/O2 contents ([42]). Reactions were stopped by spotting samples onto a matrix-assisted laser desorption/ionization-time of flight mass spectrometry (MALDI-TOF-MS) target plate and immediately mixing with α-cyano-4-hydroxycinnamic acid matrix. Hydroxylation levels were assessed by MALDI-TOF-MS as described ([46]).

PHD2 [4] = molecular target: T1, PHD2; assay: O2 dependence of PHD2-catalyzed hydroxylation (sealed vials, N2/O2 mixes); details: PHD2 with the named 19-mer substrate; 4 μM PHD2, 50 μM Fe(II), 4 mM L-ascorbate, 50 mM HEPES pH 7.5, 37 °C, O2 levels set by mass flow controllers; triplicate assays; read-out: Km^app(O2)
Experimental: as §2
FIGURE 4. O2 dependence of FIH- and PHD2-catalyzed hydroxylation of HIF-1/2α. A, O2 dependence of PHD2-catalyzed hydroxylation of HIF-1/2α CODD/NODD 19-mer peptides. 4 μM PHD2, peptide (varied), 50 μM Fe(II), 2OG (varied), 4 mM L-ascorbate in HEPES 50 mM (pH 7.5) were incubated at 37 °C. The different O2 levels were maintained using mass flow controllers ([42]), and the hydroxylation levels were analyzed by MALDI-TOF-MS. B, O2 dependence of FIH-catalyzed hydroxylation of CAD HIF-1/2α 35-mer peptides. Conditions were as follows. 5 μM FIH, 500 μM peptide, 50 μM Fe(II), 1 mM 2OG, 1 mM L-ascorbate in HEPES 50 mM (pH 7.5) were incubated at 37 °C in a hypoxia work station under different pO2. […] Error bars, S.D. of triplicate assays.

PHD2 [5] = molecular target: T1, PHD2; assay: Stopped-flow UV-visible spectroscopy, PHD2·Fe(II)·2OG·substrate + O2; details: anaerobic 0.8 mM PHD2, 1 mM peptide, 5 mM 2OG, 50 mM HEPES pH 7.5, mixed 1:1 with O2-saturated buffer at 5 °C, double exponential fit
Experimental: Stopped-flow UV-visible spectroscopy experiments were performed as described previously ([32], [42]). […] The reaction was observed over 1000 s using a photodiode array detector, and kinetic traces were analyzed using Origin version 8.51 software. Data were fitted with a double exponential function (y = A1 × exp(−kriset) + A2 × exp(−kfallt) + y0). The A1, A2, and y0 parameters were restricted with upper limits to match the observed amplitude/offset changes.
Previously reported pre-steady-state kinetic studies on PHD2 focused on its reaction with CODD HIF-1α 19-mer peptide ([38], [42]); there is no reported information on the rates of PHD2 reaction with O2 in the presence of NODD HIF-1α or HIF-2α substrates. […] Reactions were initially observed using a photodiode array detector, and difference spectra (in comparison with the reaction with O2-free buffer) were subsequently analyzed.
FIGURE 5. […] B, stopped-flow kinetic traces at 520 nm showing absorbance changes in control experiments: Fe(II) only, mix of Fe(II) and 2OG, reaction of PHD2·Fe(II)·2OG complex with O2 in the absence of CODD; reaction of PHD2·Fe(II)·N-oxalylglycine (NOG)·CODD complex with O2. […] C, stopped-flow kinetic traces at 520 nm showing absorbance species formed on PHD2-catalyzed HIF-1α NODD 19-mer peptide hydroxylation (black) and recombinant protein (HIF-1α(344–503)) hydroxylation (red). […]

DALTLLAPAAGDTIISLDF [HIF-1α NODD, 19-mer fragment (395–413) of the HIF-1α N-terminal oxygen-dependent degradation domain, PHD2 substrate]
substrate hydroxylation after 15 min (PHD2 [1]): 50% | Rapid quench-flow kproduct (PHD2 [2]; peptide hydroxylation by MALDI-TOF-MS, single exponential fit): 0.0080 ± 0.0020 s⁻¹ | Rapid quench-flow ksuccinate (PHD2 [2]; succinate by LC-MS): 0.0060 ± 0.0010 s⁻¹ | kcat^app ([3]; PHD2, 4 μM PHD2, 50 μM Fe(II)): 0.028 ± 0.001 s⁻¹ | Km ([3]; PHD2, 4 μM PHD2, peptide varied, 300 μM 2OG, read-out: Km^app(peptide)): 11 ± 2 µM | Km ([3]; PHD2 with the named substrate, 4 μM PHD2, 2OG varied, read-out: Km^app(2OG)): 30 ± 9 µM | Km (PHD2 [4]): > 450 µM | Stopped-flow, 520 nm (PHD2) krise phase (PHD2 [5]): 0.002 ± 0.001 s⁻¹ | Stopped-flow, 520 nm (PHD2) kfall phase (PHD2 [5]; traces average of triplicate, listed as NODD HIF-1α): 0.178 ± 0.002 s⁻¹ and 0.178 ± 0.006 s⁻¹
